Compounds with a hit are over-represented: about 16% of the library has one in this group of screens.
TDP1 cell noCPT – qHTS for Inhibitors of human tyrosyl-DNA phosphodiesterase 1 (TDP1): qHTS in cells in absence of CPT; DT40 Tdp1-/- hTDP1 cells, no CPT, ATP luminescence, 48 h; AID 686978, 2013; 15% of 420,000 active; Potency, µM (highest dose often 46.2 µM), hits mostly inhibitors; further: nearly all actives have a fitted effect of over 55% in size
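Stably hTDP1-transfected Tdp1-null chicken DT40 cells were treated with library compounds minus camptothecin and grown for at least 48 hr at 37 °C, after which cellular ATP was quantified by luminescence.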
uPA surface inh – blocks generation of uPA at the cell surface; 0.31% of 330,000 active; cell surface uPA generation assay, qHTS; Potency, µM (top dose mostly 38.3 µM), hits mostly inhibitors; active means well fitted inhibition curve with a large enough effect; inconclusive means small, poorly fitted or top-dose-only effect; inactive means no such curve, though single readings can be large or run the other way; tested in mouse RAW 264.7 cells; further: nearly all actives have a fitted effect of over 55% in size
miR-21 reporter – miR-21 reporter, rising signal | 340,000 tested, under 10 active | AID 2288 | HeLa miR-21 FLuc reporter, luciferase, 48 h | Potency, µM (titrated, usually from 38.3 µM); active = well fitted rising curve with a large enough effect; inconclusive = small, poorly fitted or top-dose-only effect; inactive = no such curve, though single readings can be large or run the other way;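 further: miR-21 action dims this reporter so a rising signal means less miR-21 action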
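HeLa cells endogenously expressing miR-21, stably carrying CMV-driven firefly luciferase with a downstream miR-21 binding site, 2000 cells/well. Titrations up to approximately 40 uM, 48 hours; luciferase luminescence read.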
DT40 TDP1 CPT – growth inhibition of DT40 Tdp1-/-;hTDP1 cells with camptothecin (screen for TDP1 inhibitors). chicken DT40 Tdp1-/-;hTDP1 cells + 20 nM CPT, ATP luminescence, 48 h. Potency, µM (series often up to 46.2 µM), usual class: inhibitors. 12% of 420,000 active; further: nearly all actives have a fitted effect of over 55% in size
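Cell growth measured by CellTiter-Glo luminescence after a minimum 48 h, 37 C compound exposure with 20 nM CPT in Tdp1-knockout DT40 cells stably expressing hTDP1, seeded 400/well; qHTS titration format.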
TDP1 block – blocks human tyrosyl-DNA phosphodiesterase 1 | Q9NUW8 | recombinant TDP1, AlphaScreen DNA substrate cleavage | Potency, µM (series often up to 130 µM), actives largely listed as inhibitors | 0.28% of 350,000 active | AID 485290; further: nearly all actives have a fitted effect of over 40% in size
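Recombinant E. coli-expressed Tdp1 (1 nM) preincubated with compound 15 min at RT, then 5'-biotin/3'-phosphotyrosine-FITC DNA substrate (15 nM) added for 5 min. AlphaScreen beads (10 ug/ml) added, 10 min RT; tyrosine-FITC cleavage read as signal loss.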
Of the large screens only hits and unclear results are named; the others gave an inactive call. Unless noted, the call rests on the fitted dose curve; in most records, active means well fitted curve in the direction sought with a large enough effect; inconclusive means small, poorly fitted or top-dose-only effect, or another doubt; inactive means no such curve, though single readings can be large; an effect the other way counts as inactive or inconclusive.

Cc1cccc(C)c1NC(=S)N1CC(C)OC(C)C1 (stereo not given)	none
O=C(Nc1cc(F)ccc1F)C1CCCN(c2ncnc3c2nc2n3CCCCC2)C1 (stereo not given)	TDP1 cell noCPT 13µM, DT40 TDP1 CPT 15µM
CC1CCCCN1CCNC(=O)C1CCCN(c2ncnc3c2nc2n3CCCCC2)C1 (stereo not given)	none
Cc1ccc(NC(=O)C2CCCN(c3ncnc4c3nc3n4CCCCC3)C2)c(Br)c1 (stereo not given)	TDP1 cell noCPT 4.1µM, DT40 TDP1 CPT 5.8µM (no result: uPA surface inh)
O=C(NCCCN1CCN(c2ccc(F)cc2)CC1)C1CCCN(c2ncnc3c2nc2n3CCCCC2)C1 (stereo not given)	TDP1 cell noCPT 8.2µM, DT40 TDP1 CPT inconclusive
O=C(Nc1ccc(F)cc1F)C1CCCN(c2ncnc3c2nc2n3CCCCC2)C1 (stereo not given)	TDP1 cell noCPT 15µM, DT40 TDP1 CPT 13µM
C/C(=N\NC(=O)CN1CCN(Cc2ccccc2)CC1)c1ccncc1	none
O=C(NCCCn1ccnc1)c1nc(Cn2cc(Br)cn2)no1	none
O=C(CSCc1ccc(Cl)cc1Cl)Nc1c[nH]c(=O)[nH]c1=O	none
COc1ccc2c(c1OC)C(=O)N1C2SC(C)(C)[C@H]1C(=O)NCCCOC(C)C (stereo not given in full)	none (no result: TDP1 block)
Cc1ccc(C)c(NS(=O)(=O)c2ccc3oc(=O)ccc3c2)c1	TDP1 cell noCPT inconclusive
Cc1ccc(C)c(NS(=O)(=O)c2ccc3c(c2)Cc2cc(S(=O)(=O)Nc4cc(C)ccc4C)ccc2-3)c1	TDP1 cell noCPT 13µM, DT40 TDP1 CPT 21µM
Cc1ccc(C)n1-c1nnc(N2CCC(C(=O)NCCCN3CC(C)CC(C)C3)CC2)s1 (stereo not given)	DT40 TDP1 CPT inconclusive
Cc1cc(C)c2nc(N3CCCC(C(=O)NCCCN4CCOCC4)C3)sc2c1 (stereo not given)	TDP1 cell noCPT inconclusive, DT40 TDP1 CPT inconclusive
Cc1cc(C)c2nc(N3CCC(C(=O)NCCCN4CC(C)CC(C)C4)CC3)sc2c1 (stereo not given)	TDP1 cell noCPT 23µM, DT40 TDP1 CPT inconclusive
CCN1CCN(CCCNC(=O)C2CCCN(c3nc4c(C)cc(C)cc4s3)C2)CC1 (stereo not given)	TDP1 cell noCPT 21µM, uPA surface inh inconclusive, DT40 TDP1 CPT 23µM (no result: TDP1 block)
COc1ccc(S(=O)(=O)N2CCC(C(=O)NC(C)c3ccccc3)CC2)cc1 (stereo not given)	TDP1 cell noCPT inconclusive (no result: uPA surface inh, TDP1 block)
CC1CCN(S(=O)(=O)N2CCC(C(=O)NC(C)c3ccccc3)CC2)CC1 (stereo not given)	TDP1 cell noCPT inconclusive, DT40 TDP1 CPT 10µM (no result: uPA surface inh, miR-21 reporter, TDP1 block)
CCOc1cc(C(=O)N/N=C\c2cn(CC)nc2C)cc(OCC)c1OCC	none
CC(C)Cc1ccc(CN2CCCC(NC(=O)CCCN3CCCC3=O)C2)cc1 (stereo not given)	TDP1 cell noCPT 21µM, DT40 TDP1 CPT inconclusive
COC(=O)[C@@H](O)CC[C@@H](C)Cc1c(OC)c(OC)c(C)c(OC)c1OC	none (no result: TDP1 cell noCPT, uPA surface inh, miR-21 reporter, DT40 TDP1 CPT)
O=C(COC(=O)c1ccco1)c1ccc(Cl)cc1	TDP1 cell noCPT 1.3µM
O=C(COC(=O)c1ccco1)c1ccccc1	none
COc1cc(-c2nc(-c3cccc(Cl)c3)c(-c3ccccc3)[nH]2)cc(OC)c1OC	TDP1 cell noCPT 16µM, miR-21 reporter inconclusive, DT40 TDP1 CPT 18µM (no result: uPA surface inh, TDP1 block)
COc1ccc(-c2nc(-c3ccccc3)c(-c3ccccc3)[nH]2)cc1Br	TDP1 cell noCPT 13µM, DT40 TDP1 CPT 18µM (no result: uPA surface inh)
COc1ccc(-c2nc(-c3ccccc3)c(-c3cccs3)[nH]2)cc1OC	TDP1 cell noCPT 15µM, DT40 TDP1 CPT 18µM
COc1cc(-c2nc(-c3ccc4c(c3)-c3ccccc3S4(=O)=O)c(-c3ccccc3)[nH]2)cc(OC)c1O	TDP1 cell noCPT 16µM, DT40 TDP1 CPT 6.5µM
CCOc1ccc(C(=O)OCc2cc(=O)n3cc(C)sc3n2)cc1	none (no result: uPA surface inh)
O=c1c(Cc2ccc(Cl)cc2)c(O)ccn1Cc1ccncc1	none
O=[N+]([O-])c1cccc(-c2nc(-c3ccccc3)c(-c3cccs3)[nH]2)c1	TDP1 cell noCPT inconclusive
COc1cc(-c2nc(-c3ccccc3)c(-c3cc([N+](=O)[O-])ccc3C)[nH]2)cc(OC)c1OC	TDP1 cell noCPT 16µM, miR-21 reporter inconclusive, DT40 TDP1 CPT 18µM
COc1ccc(-c2nc(-c3cccs3)c(-c3cccs3)[nH]2)cc1OC	TDP1 cell noCPT 16µM, DT40 TDP1 CPT inconclusive
Oc1cccc(-c2nc(-c3cccs3)c(-c3cccs3)[nH]2)c1	TDP1 cell noCPT inconclusive, miR-21 reporter inconclusive, DT40 TDP1 CPT inconclusive (no result: uPA surface inh)
COc1ccc(C(=O)c2sc3nc(C)cc(-c4cccs4)c3c2N)cc1	TDP1 cell noCPT inconclusive, DT40 TDP1 CPT inconclusive
COc1ccc(C(=O)c2sc3nc(C)cc(-c4cccs4)c3c2N)cc1OC	TDP1 cell noCPT 23µM, DT40 TDP1 CPT inconclusive
Cc1ccc(C(=O)NCc2cccnc2)cc1S(=O)(=O)Nc1ccccc1	none
Cc1oc2ncn(CC(C)C)c(=O)c2c1C(=O)NCc1cccc(Cl)c1	TDP1 cell noCPT 16µM, DT40 TDP1 CPT 16µM (no result: uPA surface inh)
COc1ccc(C)cc1NC(=O)c1c(C)oc2ncn(CC(C)C)c(=O)c12	TDP1 cell noCPT 23µM, DT40 TDP1 CPT inconclusive (no result: uPA surface inh)
Cc1cccc(NC(=O)c2c(C)oc3ncn(CC(C)C)c(=O)c23)n1	TDP1 cell noCPT 9.2µM, DT40 TDP1 CPT 10µM (no result: uPA surface inh)
Cc1oc2ncn(CC(C)C)c(=O)c2c1C(=O)Nc1cccc(C(F)(F)F)c1	none (no result: uPA surface inh)
Cc1ccccc1NC(=O)C1CCCN1S(=O)(=O)c1ccc2c(c1)n(C)c(=O)c(=O)n2C (stereo not given)	none
Cc1cc(NC(=O)c2ccc(OCC3CCCO3)cc2)ccc1Br (stereo not given)	TDP1 cell noCPT 15µM, DT40 TDP1 CPT 21µM (no result: uPA surface inh, miR-21 reporter, TDP1 block)
CCN(CC)S(=O)(=O)c1ccc(NC(=O)c2ccc(OCC3CCCO3)cc2)cc1 (stereo not given)	TDP1 cell noCPT 15µM, uPA surface inh inconclusive, DT40 TDP1 CPT 23µM (no result: miR-21 reporter)
N#CCSc1nc(-c2ccccc2)nc2ccccc12	none
O=C(c1ccco1)N1N=C(c2ccc(Br)cc2)CC1c1ccco1 (stereo not given)	TDP1 cell noCPT 5.2µM, DT40 TDP1 CPT 8.2µM (no result: miR-21 reporter)
CC(=O)N1N=C(c2ccc(NS(=O)(=O)c3ccccc3)cc2)CC1c1ccco1 (stereo not given)	TDP1 cell noCPT 2.3µM, uPA surface inh 0.71µM, DT40 TDP1 CPT 2.6µM (no result: miR-21 reporter)
CCCc1cc(=O)[nH]c(SCC(=O)N2N=C(c3ccc(Cl)cc3)CC2c2ccco2)n1 (stereo not given)	TDP1 cell noCPT inconclusive, DT40 TDP1 CPT inconclusive
COc1ccc(C2=NN(C(N)=S)C(c3ccco3)C2)cc1 (stereo not given)	DT40 TDP1 CPT inconclusive
